Measured values from US20110166063A1 (priority 2008, published 2011).

Protein sequences, listed by entry. Tags and fused reporters are not part of them.
UniProt Q969F8, whole entry: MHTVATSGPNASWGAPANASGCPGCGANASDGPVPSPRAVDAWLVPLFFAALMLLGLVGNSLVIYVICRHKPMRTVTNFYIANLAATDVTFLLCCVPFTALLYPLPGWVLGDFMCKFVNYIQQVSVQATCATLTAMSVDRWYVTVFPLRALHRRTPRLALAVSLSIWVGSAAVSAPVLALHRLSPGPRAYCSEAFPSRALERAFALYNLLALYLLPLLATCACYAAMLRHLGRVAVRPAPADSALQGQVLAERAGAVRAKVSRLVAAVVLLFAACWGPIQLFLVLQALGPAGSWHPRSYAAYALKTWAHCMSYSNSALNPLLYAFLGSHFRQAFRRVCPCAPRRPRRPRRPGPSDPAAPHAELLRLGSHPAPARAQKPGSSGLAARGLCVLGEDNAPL

Biological target: T1, GPR54 G-Protein coupled receptor (Homo sapiens, UniProt Q969F8)
T1 construct: host or cells: Chem-1 host cells
Experiment: FLIPR calcium flux agonist assay on GPR54
Type: cell-based
Conditions: for EC50 (nM): agonist activation at GPR54, no release incubation

[1] = time of release 0 h (37° C., pH 7 before assay)

[mono]-[mPEG-ButyAldehyde30K]-[Kisspeptin-10] [Ald30K-KP10]
EC50 (nM): No activity

mono-[mPEG2-CAC-FMOC-40K]-[Kisspeptin-10] [CAC-40K-KP10]
Fold change compared to metastin (time of release 0 h): 155
EC50 [1]: 1700 nM
EC50 (time of release 0 h (37° C., pH 7 before assay), listed as CAC-40K Kisspeptin 10): 1600 nM
Fold change compared to metastin (time of release 24 h): 9
EC50 (time of release 24 h (37° C., pH 7 before assay)): 120 nM
Fold change compared to metastin (time of release 48 h): 6
EC50 (time of release 48 h (37° C., pH 7 before assay)): 74 nM
Fold change compared to metastin (time of release 96 h): 4
EC50 (time of release 96 h (37° C., pH 7 before assay)): 47 nM

[mono]-[mPEG-ButyAldehyde-10K]-[Kisspeptin-10] [Ald10K-KP10]
EC50 (nM): No activity

mono-[mPEG-SBC-30K]-[Kisspeptin-10] [SBC-30K-KP10]
Fold change compared to metastin (time of release 0 h): 23
EC50 [1]: 280 nM
Fold change compared to metastin (time of release 0 h, listed as SBC-30K Kisspeptin 10): about 23
Fold change compared to metastin (time of release 2 h): ~17
EC50 (time of release 2 h (37° C., pH 7 before assay)): 200 nM
